The structures appear in SMILES notation.

In this assay the test system is cyanobacteria (Synechococcus elongatus PCC7942). Nature of the assay: NTG chemical mutagenesis, fatality rate of the strain.

On to `CN(N=O)C(=N)N[N+](=O)[O-]`, for which, where the note is “50 μg/ml to 100 μg/ml of the NTG, 0.5 minutes to 1.5 minutes”, the “fatality rate of the strain” value was “approximately 50%”. In addition, the fatality rate result (secondary NTG mutagenesis, 100 μg/ml of the NTG for 1 minute) is given as “approximately 50%”.

For the origin of these results see US20250188443A1, “METHOD FOR CULTIVATING CYANOBACTERIA” (published 2025).
